From ChEMBL document CHEMBL1152301, “Substitution of aminomethyl at the meta-position enhances the inactivation of O6-alkylguanine-DNA alkyltransferase by O6-benzylguanine” (J Med Chem, 2008) come the findings set out here.

The target in assay [1] is T1, Methylated-DNA--protein-cysteine methyltransferase (Homo sapiens) (UniProt P16455).
T1 sequence (whole entry): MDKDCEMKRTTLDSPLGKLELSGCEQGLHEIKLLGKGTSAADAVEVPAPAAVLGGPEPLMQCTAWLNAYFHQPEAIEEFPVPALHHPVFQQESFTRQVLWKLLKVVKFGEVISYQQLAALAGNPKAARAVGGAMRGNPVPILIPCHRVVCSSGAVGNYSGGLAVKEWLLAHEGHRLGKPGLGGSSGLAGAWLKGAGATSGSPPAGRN

In assay [2] the target is T1, Methylated-DNA--protein-cysteine methyltransferase (Homo sapiens). The source holds these as a separate data set.

Structures are written as SMILES.

For the compound `Nc1nc(OCc2ccccc2)c2nc[nH]c2n1`, the ED50 was 0.3 µM in assay [1] and 0.1 µM in assay [2].
